# Values of other authors as cited in paper PMC10762250, “Molecular mechanism of antihistamines recognition and regulation of the histamine H1 receptor” (Nature Communications, 2024).
# System: human H1R F435A
# Conditions: cited from earlier work
smiles,measurement,value
COc1ccc(CN(CCN(C)C)c2ccccn2)cc1 [mepyramine],Decrease in affinity by mutation,4 fold
